Target: Histamine H1 receptor (Cavia porcellus) (UniProt P31389)
Test: Negative logarithm of receptor dissociation constant Kp was reported in guinea pig ileum whole segments.

SMILES: NCCc1c[nH]c(CCCCC(c2ccccc2)c2ccccc2)n1
- pKp: 6.21

From ChEMBL document CHEMBL1132974 (J Med Chem, 2000)
